Paper PMC11903679

Tests used:
HLA-C*07:02/hβ2m (human) [1] = target: HLA-C*07:02/hβ2m (human)
HLA-A*02:01/hβ2m (human) [2] = target: HLA-A*02:01/hβ2m (human)
HLA-B*08:01/hβ2m (human) [3] = target: HLA-B*08:01/hβ2m (human)
HLA-C*07:02/hβ2m (human) [4] = test: in vitro refolding + SEC
HLA-A*02:01/hβ2m (human) [5] = test: in vitro refolding + SEC
HLA-B*08:01/hβ2m (human) [6] = test: in vitro refolding + SEC

In the case of CSP 319–328 ([…]) (peptide), the nanoDSF melting temperature (Tm) of the refolded peptide/HLA/hβ2m complex (HLA-C*07:02/hβ2m (human) [1]) is reported as 61.2 °C, the nanoDSF melting temperature (Tm) of the refolded peptide/HLA/hβ2m complex (HLA-A*02:01/hβ2m (human) [2]) is reported as 61 °C and the nanoDSF melting temperature (Tm) of the refolded peptide/HLA/hβ2m complex (HLA-B*08:01/hβ2m (human) [3]) is reported as 54.9 °C. The apparent refolding yield (%) (HLA-C*07:02/hβ2m (human) [4]) was 36.9%, the apparent refolding yield (%) (HLA-A*02:01/hβ2m (human) [5]) was 31.3% and the apparent refolding yield (%) (HLA-B*08:01/hβ2m (human) [6]) was 58.8%.
